Binding of CDR-mutated scFvs to a peptide of the spike HR2 region

The measurements come from Engelhart et al. 2022 (doi:10.1038/s41597-022-01779-4) through the FLAb antibody collection.

All variants were tested on one target, the spike HR2 peptide PDVDLGDISGINAS (SARS-CoV-2).

Ab-95 is the parent antibody, in scFv form: VH, then three GGGGS repeats, then VL. The heavy chain is unchanged in all variants.
VH: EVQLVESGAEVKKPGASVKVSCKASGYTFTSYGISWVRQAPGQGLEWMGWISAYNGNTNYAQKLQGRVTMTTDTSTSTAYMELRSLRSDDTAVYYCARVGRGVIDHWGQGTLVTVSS
VL: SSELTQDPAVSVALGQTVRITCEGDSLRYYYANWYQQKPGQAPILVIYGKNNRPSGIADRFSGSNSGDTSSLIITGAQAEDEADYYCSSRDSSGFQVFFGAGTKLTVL

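AAYL52 was designed without a model: most single CDR substitutions and a random sample of double and triple ones. In AlphaSeq, yeast of one mating type display the scFv and yeast of the other type display the target. Binding brings cells together so that they mate, and sequencing counts the barcode pairs among the diploids. Read counts were normalised to the haploid input and turned into Kd by a linear fit to BCL2-family pairs of known affinity, for each replicate. Mating was done three times.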

The parent's light chain CDRs are EGDSLRYYYAN, GKNNRPS, SSRDSSGFQVF; each variant's own CDRs replace them letter for letter. Each Kd is an estimate from the mating assay, the geometric mean of the replicates in which the pair was seen; lower is stronger. An entry "not detected" has no value in the source: the pair was not observed among the diploids in any replicate. This suggests poor binding but is not conclusive. Parent in this assay: reference entry 200 nM, copy in this library 180 nM. Empty control strains, which show no peptide, gave a signal in 28% of pairings with library AAYL52; the median was 8.2 µM and 95% of these signals were weaker than 800 nM. No background was subtracted. The control count says in how many pairings with the empty strains this scFv gave a signal.

| # | Kd | seen in | empty controls | CDR-L1 | CDR-L2 | CDR-L3 |
|---|---|---|---|---|---|---|
| 1 | 610 nM | 3/3 | 4/9 | EGDCLRYYGAN | GKNNRPS | SSRDSSGFQVC |
| 2 | 720 nM | 1/3 | 4/9 | EGDSLRYYYSH | GKNNRPS | SARDSSGFQVF |
| 3 | 650 nM | 3/3 | 4/9 | EGDSLRYGYAN | RKNNRPS | SSRDSSGFYVF |
| 4 | 68 nM | 3/3 | 4/9 | EGDSLRYAYAN | GKNNRAS | SSRDSDGFQVF |
| 5 | 26 µM | 1/3 | 2/9 | EGDSLRYKYHN | GKNNRPS | SSRDSSTFQVF |
| 6 | not detected | 0/3 | 0/9 | EGDPLRYYAAN | GKNNRPS | SSRESSGFQVF |
| 7 | not detected | 0/3 | 0/9 | EGDHLRYYYAN | GKNNRPS | SNRDSSFFQVF |
| 8 | 730 nM | 3/3 | 3/9 | EGDSLRYYYAN | GPNNRPS | SSRDSSGKQVA |
| 9 | 560 nM | 3/3 | 4/9 | EGDSLRYYYAN | GKGNVPS | SSRDSSGFQVL |
| 10 | 12 µM | 1/3 | 5/9 | EGDSLRYVYAN | GKNNDPE | SSRDSSGFQVF |
| 11 | 780 nM | 3/3 | 6/9 | EGDSLFYYYAN | GKNNRPS | SSRDSSGFQVY |
| 12 | 2.6 µM | 3/3 | 5/9 | EGDSLRYYKAN | GKNNRPS | SPRDSSGFQVF |
| 13 | 460 nM | 3/3 | 1/9 | HGDSLRYYYAN | GKNNRPS | DSRDSNGFQVF |
| 14 | 5.1 µM | 1/3 | 2/9 | EGLSLRIYYAN | GKNNRPS | SSRDNSGFQVF |
| 15 | 120 nM | 3/3 | 1/9 | QGDSLRYYEAN | GKNNRPS | SSRDSFGFQVF |
| 16 | 2.3 µM | 3/3 | 3/9 | EGDSLRRYYAN | GDNNRPS | SSRDSSGGQVF |
| 17 | not detected | 0/3 | 1/9 | EGDSRRYYYAN | GKNNRPS | SSRDSCGFQVF |
| 18 | 110 nM | 3/3 | 6/9 | EGDSLRYYYAN | GKNTRPS | ESRDSSGFQVF |
| 19 | not detected | 0/3 | 1/9 | EGVSYRYYYAN | GKNWRPS | SSRDSSGFQVF |
| 20 | 12 µM | 3/3 | 3/9 | EGFSLRYYYAN | GKNGRPV | SSRDSSGFQVF |
| 21 | not detected | 0/3 | 2/9 | EGDSLRYYYIN | GKNNIPS | SSRDSSGFQYF |
| 22 | 400 nM | 3/3 | 3/9 | EGESLRYYYAN | GKNNRPS | MSRDSSGFIVF |
| 23 | 240 µM | 1/3 | 5/9 | EGDSERYYYAN | GKNNRPS | SSRRSSGFQVF |
| 24 | 1.1 µM | 3/3 | 3/9 | EADSLRYYYAN | GKNNRPS | SSRDSSFFQVF |
| 25 | 2.1 µM | 2/3 | 4/9 | EGDSLRYYYAN | GKWNRPS | SSRDSSGFQAF |
| 26 | 5.5 µM | 2/3 | 3/9 | EGDSFRYYYAN | GKGNRPS | SSRDSSGFQIF |
| 27 | 110 µM | 1/3 | 2/9 | EGDSLRYYYHN | VKNNRPS | SSRVSSGFQVF |
| 28 | 32 µM | 1/3 | 2/9 | EGDSIRYYYAN | GKINRSS | SSRDSSGFQVF |
| 29 | 710 nM | 3/3 | 1/9 | EGDSLHYYYAN | GKNNRPS | SSRWSGGFQVF |
| 30 | 510 nM | 3/3 | 4/9 | EGDSLRHYYAN | GKNNRPS | SSRDSSEFQVF |
| 31 | 650 nM | 3/3 | 1/9 | EGSSLRYYYAN | GKNNRPM | SSRDSFGFQVF |
| 32 | 240 nM | 3/3 | 5/9 | EGESLPYYYAN | GKNNRPS | SSRDVSGFQVF |
| 33 | 1.0 µM | 2/3 | 0/9 | EGDSLRFYYTN | GKNNRPS | SSRDSSGFYVF |
| 34 | 360 µM | 1/3 | 0/9 | EGDSLRYYYKN | GKNNRPS | SYRDSSGGQVF |
| 35 | 620 nM | 1/3 | 3/9 | EGDSLRYYYAN | GKNNRPS | SSRDVSGFWVF |
| 36 | 1.1 µM | 3/3 | 3/9 | EGDSLQYYYAN | GKSNRPS | SSRDSSGFEVF |
| 37 | 7.6 µM | 2/3 | 5/9 | EGKLLRYYYAN | GKNNRPS | SSRDSSGFQVF |
| 38 | 3.0 µM | 1/3 | 3/9 | EGDSLRYYVAN | GKLNRPS | SSRWSSGFQVF |
| 39 | not detected | 0/3 | 1/9 | EGDSLRYLYAN | LKNNRPS | SSRVSSGFQVF |
| 40 | 66 µM | 2/3 | 1/9 | EGNSLRSYYAN | GKNNRPS | SSRDSSGLQVF |
| 41 | 2.6 µM | 3/3 | 4/9 | EGDSLWYYYAN | GHNNRPS | FSRDSSGFQVF |
| 42 | 2.9 µM | 3/3 | 6/9 | EGDSLKYYYAN | GINNRPS | SSRDSSGFQHF |
| 43 | 4.5 µM | 2/3 | 2/9 | EGDSLNYYYAN | GKNTRPS | SIRDSSGFQVF |
| 44 | 1.8 µM | 3/3 | 3/9 | EGFSTRYYYAN | GKNNRPS | SSRDSWGFQVF |
| 45 | not detected | 0/3 | 1/9 | EGDSLRYYYKN | GKNNRPY | SNRDSSGFQVF |
| 46 | 1.8 µM | 1/3 | 2/9 | EGDSLRYYYAN | GKNNGVS | SSRDSSWFQVF |
| 47 | 2.4 µM | 2/3 | 2/9 | EGMQLRYIYAN | GKNNRPS | SSRDSSGFQVF |
| 48 | not detected | 0/3 | 3/9 | EGDSLRYYYAN | GKCNRPS | SSRDSSGIQEF |
| 49 | 7.0 µM | 2/3 | 0/9 | EGDSVRYYYEN | GKNNMPS | SSRDSSGFQVF |
| 50 | 540 nM | 3/3 | 4/9 | SGDNLRYYYAN | GKNNRPT | SSRDSSGFQVF |
| 51 | 46 nM | 3/3 | 3/9 | EGDSLMYYYAN | GKNNRPD | SSRDQSGFQVF |
| 52 | 3.7 µM | 1/3 | 2/9 | EGDSIRYYYAN | GKNNRPS | SVRQSSGFQVF |
| 53 | 3.6 µM | 3/3 | 4/9 | EGDSLRYYYAN | GKNNRPS | SHRDSSGFNVC |
| 54 | 1.2 µM | 3/3 | 2/9 | EGDSLRYYYAN | GKNNIPS | SSESSSGFQVF |
| 55 | 55 nM | 3/3 | 2/9 | EGDTLRYRYAN | GKNNRPS | SSRDLSGFQVF |
| 56 | not detected | 0/3 | 0/9 | EGDHLRYYYAN | GKNNYPS | SSLDSSGFQVF |
| 57 | 340 nM | 3/3 | 3/9 | EGDSLRYKYAN | GVNNRPS | SNRDSSGFQVF |
| 58 | not detected | 0/3 | 0/9 | EGDALRYYYAN | GKNVRPS | SPRDSSGFQVF |
| 59 | 13 µM | 1/3 | 3/9 | ESDSLRYYYAN | GKNNRPW | SSPDSSGFQVF |
| 60 | 6.7 µM | 3/3 | 4/9 | EGRSLRYYYVN | GKNNRPS | SSRDSSGFQVC |
| 61 | 9.3 µM | 1/3 | 3/9 | EGDSLHYYYAR | GKNNRPS | SSYDSSGFQVF |
| 62 | 2.1 µM | 3/3 | 0/9 | EGDSLRYYYAN | GMNNRPK | SSRDSSGFQNF |
| 63 | 5.9 µM | 1/3 | 0/9 | EGDSTRYYTAN | GKNNRPS | SSRDSSGFQVD |
| 64 | not detected | 0/3 | 5/9 | EGDSLRYYYHN | GKHNRPS | SSRDSSMFQVF |
| 65 | 19 µM | 2/3 | 6/9 | EGDSLRYYYPN | CKNNRPS | SSMDSSGFQVF |
| 66 | 930 nM | 3/3 | 4/9 | EGCSLRYYYAN | GKNNRPM | SSRDSSVFQVF |

The 5 strongest on average among those seen in every replicate, once more:

{"CDR-L1": "EGDSLMYYYAN", "CDR-L2": "GKNNRPD", "CDR-L3": "SSRDQSGFQVF", "Kd": "46 nM", "seen in": "3/3", "empty controls": "3/9"}
{"CDR-L1": "EGDTLRYRYAN", "CDR-L2": "GKNNRPS", "CDR-L3": "SSRDLSGFQVF", "Kd": "55 nM", "seen in": "3/3", "empty controls": "2/9"}
{"CDR-L1": "EGDSLRYAYAN", "CDR-L2": "GKNNRAS", "CDR-L3": "SSRDSDGFQVF", "Kd": "68 nM", "seen in": "3/3", "empty controls": "4/9"}
{"CDR-L1": "EGDSLRYYYAN", "CDR-L2": "GKNTRPS", "CDR-L3": "ESRDSSGFQVF", "Kd": "110 nM", "seen in": "3/3", "empty controls": "6/9"}
{"CDR-L1": "QGDSLRYYEAN", "CDR-L2": "GKNNRPS", "CDR-L3": "SSRDSFGFQVF", "Kd": "120 nM", "seen in": "3/3", "empty controls": "1/9"}